pKi: −log10 of the molar value.
What was measured:
[1] = molecular target: T1, Delta-type opioid receptor (Rattus norvegicus, UniProt P33533); assay: The compound was tested for the ability to displace opioid receptor delta specific radioligand [3H]-DSLET
[2] = molecular target: Mu-type opioid receptor (Rattus norvegicus, UniProt P33535); assay: The compound was tested for the ability to displace mu-receptor specific radioligand [3H]DAGO
In short: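 μ-selective [³H]DAGO displacement in rat brain membrane preparation, radioligand at 0.72 nM, 2 h incubation at 0 °C.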

By UniProt entry, the sequences of proteins in these tests, tags left out.
UniProt P33533, whole entry: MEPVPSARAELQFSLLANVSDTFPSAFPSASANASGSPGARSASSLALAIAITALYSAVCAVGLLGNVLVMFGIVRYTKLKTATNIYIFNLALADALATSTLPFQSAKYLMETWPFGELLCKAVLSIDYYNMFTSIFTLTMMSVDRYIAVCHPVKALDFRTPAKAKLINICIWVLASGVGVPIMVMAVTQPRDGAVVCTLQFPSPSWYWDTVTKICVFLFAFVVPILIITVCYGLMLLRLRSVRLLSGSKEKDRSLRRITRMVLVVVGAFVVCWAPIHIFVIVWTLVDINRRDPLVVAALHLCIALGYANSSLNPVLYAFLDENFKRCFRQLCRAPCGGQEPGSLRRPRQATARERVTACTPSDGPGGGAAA
UniProt P33535, whole entry: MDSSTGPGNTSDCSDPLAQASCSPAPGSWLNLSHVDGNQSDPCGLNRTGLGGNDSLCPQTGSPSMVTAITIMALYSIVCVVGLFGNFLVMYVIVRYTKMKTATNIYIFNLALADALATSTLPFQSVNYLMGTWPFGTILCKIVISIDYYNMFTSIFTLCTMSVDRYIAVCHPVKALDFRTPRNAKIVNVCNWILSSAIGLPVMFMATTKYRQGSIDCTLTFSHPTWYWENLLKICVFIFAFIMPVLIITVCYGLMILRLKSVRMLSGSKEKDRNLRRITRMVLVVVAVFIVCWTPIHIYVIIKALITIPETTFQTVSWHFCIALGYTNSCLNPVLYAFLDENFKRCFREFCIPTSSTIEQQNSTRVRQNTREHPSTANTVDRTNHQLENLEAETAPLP

[3] = molecular target: T1, Delta-type opioid receptor; assay: The compound was tested for the ability to displace opioid receptor delta specific radioligand [3H]DPDPE

`N[C@@H](Cc1ccc(O)cc1)C(=O)N[C@@H]1CSSC2(CCCCC2)[C@H](C(=O)O)NC(=O)[C@H](Cc2ccccc2)NC(=O)CNC1=O` showed a pKi [1] of 8.64, a pKi [2] of 7.68 and a pKi [3] of 9.20.

— ChEMBL document CHEMBL1124680, “Cyclic enkephalin analogues containing alpha-amino-beta-mercapto-beta,beta-pentamethylenepropionic acid at positions 2 or 5” (J Med Chem, 1989)
